Results reported in ChEMBL document CHEMBL1152888, “Synthesis, pharmacological and in silico evaluation of 1-(4-di-hydroxy-3,5-dioxa-4-borabicyclo[4.4.0]deca-7,9,11-trien-9-yl)-2-(tert-butylamino)ethanol, a compound designed to act as a beta2 adrenoceptor agonist” (Eur J Med Chem, 2009).

By UniProt entry, the sequences of proteins in these tests, tags left out.
UniProt Q8K4Z4, whole entry: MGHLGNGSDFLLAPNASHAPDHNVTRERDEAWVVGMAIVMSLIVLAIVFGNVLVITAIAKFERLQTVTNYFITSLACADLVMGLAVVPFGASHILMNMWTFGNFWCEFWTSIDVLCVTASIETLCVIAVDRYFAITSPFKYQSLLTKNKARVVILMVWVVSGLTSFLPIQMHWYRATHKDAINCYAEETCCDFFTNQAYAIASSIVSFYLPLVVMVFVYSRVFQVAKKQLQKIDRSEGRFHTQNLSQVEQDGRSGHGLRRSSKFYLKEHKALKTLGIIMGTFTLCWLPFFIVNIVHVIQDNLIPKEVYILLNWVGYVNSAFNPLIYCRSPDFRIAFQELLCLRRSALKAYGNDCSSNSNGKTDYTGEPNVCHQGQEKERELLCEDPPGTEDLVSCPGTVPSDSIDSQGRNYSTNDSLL

Assays:
[1] = target: T1, Beta-2 adrenergic receptor (Cavia porcellus, UniProt Q8K4Z4); test: Agonist activity at adrenergic beta2 receptor in Hartley guinea pig tracheal ring assessed as bronchorelaxation activity against carbachol-induced contraction; format: functional, tissue-based, Trachea
[2] = target: T1, Beta-2 adrenergic receptor; test: Agonist activity at adrenergic beta2 receptor in Hartley guinea pig tracheal ring assessed as bronchorelaxation activity against histamine-induced contraction; format: functional, tissue-based, Trachea
[3] = target: T1, Beta-2 adrenergic receptor; test: Binding affinity to adrenergic beta2 receptor in Hartley guinea pig tracheal ring

SMILES: CC(C)(C)NCC(O)c1ccc(O)c(CO)c1 (stereo not drawn) [ALBUTEROL]
- EC50 [1]: 268 nM
- EC50 [2]: 0.454 nM
- Kd [3]: 1160 nM
